Source: patent US20070298105A1, “METHODS OF TREATING CONDITIONS BY SUSTAINED RELEASE ADMINISTRATION OF BENZIMIDAZOLE DERIVATIVES” (priority 2006, published 2007)

Experiment: Colonic intubation study: plasma pharmacokinetics of rabeprazole and esomeprazole
Format: in vivo
Details: male, human, po, 40 mg, TRT E: esomeprazole 40 mg oral tablet
Protocol: A single-dose, open-label, partially randomized, five-treatment, five-period, crossover pilot study was performed in healthy males to determine relative pharmacokinetics of rabeprazole, and comparators when dosed either orally or colonically. The study was a single dose study with blood sampling up to 24 hours following initiation. […] Colonic dosing occurred using a nasoenteral tube. Treatment C was a single 20 mg dose of rabeprazole sodium oral enteric coated tablets dosed orally. Treatment D was placebo (200 mL of water) dosed orally. Treatment E was a single 40 mg dose of esomeprazole magnesium trihydrate dosed as an oral film-coated tablet. The following rabeprazole and esomeprazole pharmacokinetic (PK) parameters were determined: maximum plasma concentration [Cmax], time to maximum concentration [Tmax], apparent elimination rate constant [k] and half-life [t1/2], area under the plasma concentration-time profile (AUC) to time t [AUCt], where t is the time of the last quantifiable plasma concentration, and AUC to infinity [AUCinf]. For subjects whose apparent elimination rate constant [k] could not be properly determined, the AUC to infinity [AUCinf]) was calculated based on the median apparent elimination constant [k] of the subjects with available t1/2 values in the same treatment period. […] The intragastric pH profile were determined. […]

COc1ccc2nc([S@@+]([O-])Cc3ncc(C)c(OC)c3C)[nH]c2c1 [Esomeprazole]
Tmax (N = 19, read-out: Tmax (median)): 1.5 h
Tmax (subset N = 14, read-out: Tmax (median)): 1.5 h

Where two headings read alike, the source gives them in different places.
